Tests used:
brain COMT = target: T1, brain COMT (Rattus norvegicus, UniProt P22734); assay: Brain COMT activity in homogenates after administration of test compounds by gastric tube; assay type: in vivo
T1 construct: Aliquots of 0.5 ml of liver and whole brain homogenates were preincubated; from tissue; host or cells: whole brain homogenate of male Wistar rats
T1 sequence (P22734 1-264): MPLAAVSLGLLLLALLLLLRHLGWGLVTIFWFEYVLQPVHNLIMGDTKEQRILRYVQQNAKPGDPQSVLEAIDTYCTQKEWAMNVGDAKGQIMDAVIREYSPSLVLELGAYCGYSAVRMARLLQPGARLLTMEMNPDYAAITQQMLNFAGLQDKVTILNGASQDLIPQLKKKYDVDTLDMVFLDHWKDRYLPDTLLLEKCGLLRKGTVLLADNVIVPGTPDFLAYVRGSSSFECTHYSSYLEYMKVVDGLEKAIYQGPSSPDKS

liver COMT = target: T2, liver COMT (Rattus norvegicus, UniProt P22734); assay: Liver COMT activity in homogenates after administration of test compounds by gastric tube; assay type: in vivo; settings: for % inhibition of COMT activity, liver, 9 h: 9 h after administration by gastric tube
T2 construct: Aliquots of 0.5 ml of liver and whole brain homogenates were preincubated; from tissue; host or cells: liver homogenate of male Wistar rats
T2 sequence (P22734 44-264 limits assumed): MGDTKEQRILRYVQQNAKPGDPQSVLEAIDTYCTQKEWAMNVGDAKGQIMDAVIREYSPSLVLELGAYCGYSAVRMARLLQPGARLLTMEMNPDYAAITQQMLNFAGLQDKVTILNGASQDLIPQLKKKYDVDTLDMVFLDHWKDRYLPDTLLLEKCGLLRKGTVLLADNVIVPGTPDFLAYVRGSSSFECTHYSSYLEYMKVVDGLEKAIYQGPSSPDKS

rat liver COMT = target: T3, rat liver COMT (Rattus norvegicus, UniProt P22734); assay: In vitro COMT inhibition, rat liver homogenate (methylation of adrenaline to metanephrine); assay type: biochemical
T3 construct: Aliquots of 0.5 ml of liver and whole brain homogenates were preincubated; from tissue; host or cells: liver homogenate of male Wistar rats
T3 sequence (P22734 44-264 limits assumed): T2 sequence (P22734 44-264 limits assumed)

For `O=C(Cc1ccccc1)c1cc(O)c(O)c([N+](=O)[O-])c1` [Compound B, 1-(3,4-Dihydroxy-5-nitrophenyl)-2-phenyl-1-ethanone], the “potency at inhibiting brain COMT compared with tolcapone” value (brain COMT; after oral administration, FIG. 1) was “much less potent than tolcapone”, the “% inhibition of COMT activity, brain, 0.5 h” value (brain COMT; rat brain homogenate, 0.5 h after administration by gastric tube, mean ± S.E.M., n=4) was 83.6 ± 1.3% and the “% inhibition of COMT activity, brain, 1 h” value (brain COMT; rat brain homogenate, 1 h after administration by gastric tube, mean ± S.E.M., n=4) was 80.9 ± 2.7%. The “% inhibition of COMT activity, brain, 3 h” value (brain COMT; rat brain homogenate, 3 h after administration by gastric tube, mean ± S.E.M., n=4) was 65.0 ± 3.9%, the “% inhibition of COMT activity, brain, 6 h” value (brain COMT; rat brain homogenate, 6 h after administration by gastric tube, mean ± S.E.M., n=4) was 31.5 ± 3.2% and the “% inhibition of COMT activity, brain, 9 h” value (brain COMT; rat brain homogenate, 9 h after administration by gastric tube, mean ± S.E.M., n=4) was 21.9 ± 2.7%. The ED50 (brain COMT; rat, po, read-out: ED50 for inhibiting brain COMT) was 5.3 ± 1.1 mg/kg, the “% inhibition of COMT activity, liver, 0.5 h” value (liver COMT; rat liver homogenate, 0.5 h after administration by gastric tube, mean ± S.E.M., n=4) was 98.6 ± 0.4% and the “% inhibition of COMT activity, liver, 1 h” value (liver COMT; rat liver homogenate, 1 h after administration by gastric tube, mean ± S.E.M., n=4) was 96.7 ± 1.7%. For the same molecule, the “% inhibition of COMT activity, liver, 3 h” value (liver COMT; rat liver homogenate, 3 h after administration by gastric tube, mean ± S.E.M., n=4) was 96.2 ± 0.8%, the “% inhibition of COMT activity, liver, 6 h” value (liver COMT; rat liver homogenate, 6 h after administration by gastric tube, mean ± S.E.M., n=4) was 75.9 ± 4.2% and the “% inhibition of COMT activity, liver, 9 h” value (liver COMT; rat liver homogenate, mean ± S.E.M., n=4) was 69.8 ± 3.6%. The “% inhibition of COMT activity, liver, 9 h” value (liver COMT; rat liver homogenate, mean ± S.E.M., n=4, listed as compound B) was ~70%, the ED50 (liver COMT; rat, po, read-out: ED50 for inhibiting liver COMT) was 0.7 ± 1.1 mg/kg and the IC50 (rat liver COMT) was 696 nM.
